{"source": "patent EP1353939B1", "about": "“TETRAPEPTIDE REGULATING PROSTATE FUNCTIONS AND ITS COMPOSITIONS AND USES” (Sankt-Peterburgskaya Obschestvennaya Organizatsia …, priority 2001, dated 2004)", "key": {"[1]": {"settings": "mice, single i.m. 1-5 mg/kg"}, "[2]": {"settings": "rats, i.m. 1 µg/kg, 0.3 mg/kg, 3 mg/kg once a day for 90 days"}, "[3]": {"settings": "rats, i.m. 1 µg/kg, 0.1 mg/kg, 1 mg/kg once a day for 6 months"}}}
{"substance": "lysyl-glutamyl-aspartyl-proline [Lys-Glu-Asp-Pro tetrapeptide]", "values": [{"measurement": "alterations in general state, behaviour, motor activity, hair and skin integument, physiological discharge", "setting": "[1]", "result": "No alterations"}, {"measurement": "animals died", "setting": "[1]; during 72 hours and later in 14 days", "result": "none of the animals died"}, {"measurement": "side effects (subacute toxicity)", "setting": "[2]", "result": "lack of any side effects"}, {"measurement": "pathologic alterations (general state, peripheral blood indices, intrinsic organs, cardiovascular and respiratory systems, liver and kidney functions)", "setting": "[3]", "result": "no pathologic alterations"}, {"measurement": "side effects (chronic toxicity)", "setting": "[3]", "result": "lack of any side effects"}]}
